Assay results: paper PMC4685943 (ACS Chemical Biology, 2015)

Tested on: SRC family kinases (p-SFK)
Test: SFK phosphorylation, Western blot in NCI-H2286 and HCC-366
Assay type: cell-based
Settings: NCI-H2286 and HCC-366, 3 h, 0.5 μM

## Cc1nc(Nc2ncc(C(=O)Nc3c(C)cccc3Cl)s2)cc(N2CCN(CCO)CC2)n1 [Dasatinib]
  effect on p-SFK: robust decrease in p-SFK; also recorded: potent inhibition

“Also recorded” adds a separate entry of the source.
